Drawing on publication PMC3610893, “The CouPSTU and TarPQM Transporters in Rhodopseudomonas palustris: Redundant, Promiscuous Uptake Systems for Lignin-Derived Aromatic Substrates” (PLoS ONE, 2013), this text covers Kd for one compound.

For the experiment, the target named is T1, TarP (RPA1782) periplasmic binding-protein (Rhodopseudomonas palustris, UniProt Q6N8X0).
T1 sequence (Q6N8X0 20-336): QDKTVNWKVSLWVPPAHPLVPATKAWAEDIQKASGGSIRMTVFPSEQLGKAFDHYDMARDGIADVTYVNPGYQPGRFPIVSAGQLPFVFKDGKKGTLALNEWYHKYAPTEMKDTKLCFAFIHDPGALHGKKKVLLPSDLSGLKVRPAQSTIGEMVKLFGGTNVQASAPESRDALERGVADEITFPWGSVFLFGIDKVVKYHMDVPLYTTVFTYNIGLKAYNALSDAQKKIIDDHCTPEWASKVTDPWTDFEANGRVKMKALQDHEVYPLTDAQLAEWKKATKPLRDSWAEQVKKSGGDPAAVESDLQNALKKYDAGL
Description: Intrinsic tryptophan fluorescence spectroscopy / ligand titrations with TarP (RPA1782). The following applies: protein 0.2 µM, 10 mM Tris-HCl pH 7.4, 30°C, emission 340 nm; three independent titrations (cinnamate: two single titrations); read-out: K d (nM) TarP (RPA1782), fluorescence titrations. The protocol: Pure protein was unfolded by dialysis against 1 L of 6 M urea for 16 hours at 4°C. Refolding was effected by dialysis against 2 L of refolding buffer (50 mM Tris-HCl pH 7.2 plus 100 mM NaCl) for 8 hours, the buffer being changed every 2 hours with a final overnight dialysis. Once removed from the dialysis tubing, protein was centrifuged (13,000×g, 10 mins, 4°C) to remove any precipitated misfolded protein.
Changes in the UV fluorescence of intrinsic tryptophan residues in RPA1782 and RPA1789 were measured using a Cary Eclipse fluorimeter (Varian Ltd, UK) in 10 mM Tris-HCl buffer pH 7.4 at 30°C in a 3 ml volume. Excitation of samples was at 280 nm (5 nm slit width) and emission was recorded at 300–400 nm (20 nm slit width). Ligand titrations were performed with 0.2 µM protein with λex 280 nm λem 340 nm using 5 nm excitation and 20 nm emission slit widths respectively. Except where indicated, data from three independent titrations was used to calculate K d values, by fitting to the quadratic equation for tight binding as previously described.

As for `O=C(O)C(=O)Cc1ccc(O)cc1` [4-HPP, 4-hydroxyphenylpyruvate], the Kd was determined as 42 ± 7 nM.
